Compound activity: PubChem BioAssay, ICCB-Longwood Screening Facility, Harvard Medical School
HCMV UL50-53 inh – disrupts HCMV UL50-UL53 complex binding; inhibition, % (no concentration beside the values); HTRF UL50-UL53 interaction, normalized percent inhibition; hit rate 0.15% among 190,000; AID 1918969; in the data active means inhibition above about 27%, passing the limit was not always enough
GIV-Gai inh – inhibitors of GIV GBA-motif binding to rat Galpha-i3; P08753; Galpha-i3/FITC-GIV peptide fluorescence polarization, 90 min; active compounds read low; scaled: aluminum fluoride 0%, vehicle 100%; percent of control (FP), % (concentration not given with the values); 210,000 compounds, 0.42% hits; AID 1224905;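 active means replicate mean at 85% of control or lower, very high polarization wells dropped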;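 further: wells of about 15 µL received 100 nL stock; the first replicate is given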
GIV-Gai FP conf – confirmation of inhibitors of GIV binding to rat Galpha-i3. shares compounds with GIV-Gai inh. AID 1259350. fluorescence polarization, mP at 100 µM. FITC-GIV peptide binding to Galphai3, fluorescence polarization; active compounds read low. hit rate 38% among 580;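 active means inhibition score of 15 or more, meaning 100 minus mean polarization as percent of control over three replicates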;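 further: lower mP means peptide displaced from Galphai3 so more inhibition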
GIV-Gai AS conf – GIV-Galpha-i3 inhibition, AlphaScreen confirmation; shares compounds with GIV-Gai inh; AlphaScreen Galphai3-GIV binding, purified proteins, 90 min; active compounds read low; AlphaScreen counts at 100 µM; hit rate 39% among 580; AID 1259351;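 active means inhibition score at or above a set limit, where the score is 100 minus the three-replicate mean percent of control signal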
* marks the source's active call; other numbers are inactive results; x = no result given. Shown is part of a subset that was picked to be rich in hits.

canonical_smiles,HCMV UL50-53 inh,GIV-Gai inh,GIV-Gai FP conf,GIV-Gai AS conf
Cc1[nH]n(-c2ccccc2)c(=O)c1C(c1cc(Br)ccc1O)c1c(C)[nH]n(-c2ccccc2)c1=O,x,106,x,x
C/C=C(\C)C(=O)Nc1ccc(N2CCOCC2)cc1,x,107,x,x
O=C(COc1ccc(Cl)cc1)NCC(c1ccco1)S(=O)(=O)c1ccc(F)cc1 (stereo not given),x,96,x,x
C[C@]12CC(O)C3C(CCC4=CC(=O)CC[C@@]43C)C1CCC2C(=O)CO (stereo not given in full),-73,x,x,x
O=C(Nc1ccc(Cl)cc1F)c1nc(Nc2ccccc2)c2ccccc2n1,-7,99,x,x
CCOC(=O)c1nc2cc(C)c(C)cc2nc1NCc1ccc2c(c1)OCO2,-12,80*,62,44491
c1cc2c(cc1CNc1nc3nonc3nc1NCc1ccc3c(c1)OCO3)OCO2,-2,107,x,x
Cc1cccc(C(=O)Nc2ccc3c(c2)CCC(=O)N3C)c1,-32,103,x,x
Cc1ccc(Cl)cc1NS(=O)(=O)c1ccc2c(c1)c(=O)n(CC(=O)N1CCCC1)c(=O)n2C,x,99,x,x
CC1(C)CC(=O)C2=C(C1)Nc1ccccc1S2,-52,78*,70,61627
CC1(C)CC(=O)C2=C(C1)Nc1ccccc1NC2c1ccccc1F (stereo not given),1,103,x,x
O=C(Nc1c(C(=O)Nc2ccc(F)cc2)oc2ccccc12)c1ccccc1,x,100,x,x
Nc1nnn2c(=O)c3cccc4cccc(c43)c12,-108,88,79,19934*
O=c1c2cccc3cccc(c32)c2nc3ccc4ccccc4c3n12,x,112,x,x
Cn1c(=O)cc2c3c(c(Nc4ccccc4)ccc31)C(=O)c1ccccc1-2,x,101,x,x
CC(=O)Nc1ccc2c3c(cc(=O)n2C)-c2ccccc2C(=O)c13,x,85*,69,46281
Oc1ccccc1C=Nc1cccc(N=Cc2ccccc2O)c1,x,100,x,x
Oc1sc(-c2ccccc2)cc1C=Nc1ccccc1,x,84*,74,45653
O=C(c1ccccc1)N(c1ccc(Cl)cc1)C1C=CS(=O)(=O)C1 (stereo not given),x,102,x,x
Cn1c(C(=O)NCC2(c3ccccc3)CCCC2)cc2c(=O)n(C)c3ccccc3c21,x,109,x,x
COC(=O)c1cc(C(=O)Nc2ccc(Cl)cc2)c(=O)[nH]c1C,-13,106,81,29055
COC(=O)c1cc(C(=O)Nc2ccc(C)cc2)c(=O)[nH]c1C,4,105,x,x
CCOC(=O)c1ccc(-n2c(C)cc(C=C3C(=O)N(C)C(=S)N(C)C3=O)c2C)cc1,-5,113,x,x
CCOC(=O)c1ccc(-n2c(C)cc(C=C3C(=O)NC(=S)NC3=O)c2C)cc1,x,78*,64,10801*

Shown as a hit in GIV-Gai AS conf, among the entries above:
| smiles | GIV-Gai inh | GIV-Gai FP conf | GIV-Gai AS conf |
| --- | --- | --- | --- |
| Nc1nnn2c(=O)c3cccc4cccc(c43)c12 | 88 | 79 | 19934* |
| CCOC(=O)c1ccc(-n2c(C)cc(C=C3C(=O)NC(=S)NC3=O)c2C)cc1 | 78* | 64 | 10801* |
